Consider one compound from ChEMBL document CHEMBL2429861, “Chemopreventive and antioxidant activity of 6-substituted imidazo[2,1-b]thiazoles” (Eur J Med Chem, 2013).

Sequences of proteins named here, by UniProt entry; tags and fusion partners are left off.
UniProt Q64669, whole entry: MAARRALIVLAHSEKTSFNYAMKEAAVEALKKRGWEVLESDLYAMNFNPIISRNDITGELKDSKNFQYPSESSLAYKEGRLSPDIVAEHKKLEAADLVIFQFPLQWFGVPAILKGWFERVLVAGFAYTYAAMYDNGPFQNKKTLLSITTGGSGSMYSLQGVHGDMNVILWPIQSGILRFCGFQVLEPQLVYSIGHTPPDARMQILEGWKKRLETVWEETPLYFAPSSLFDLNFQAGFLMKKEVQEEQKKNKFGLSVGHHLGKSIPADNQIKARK

Assay [1] deals with NAD(P)H dehydrogenase [quinone] 1 (Mus musculus) (UniProt Q64669). Kind of assay: Induction of quinone reductase-1 activity in mouse Hepa-1c1c7 cells assessed as induction ratio at 50 uM by MTT assay relative to DMSO-treated control. In kind it is cell-based. Summed up:
(§1)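 Hepa 1c1c7 murine hepatoma cells incubated with compounds at […]. Cells were permeabilized with digitonin and QR1 activity measured by MTT reduction to formazan at 595 nm, with a parallel crystal violet protein assay. IR is specific activity versus DMSO control; CD is the concentration doubling activity, determined only where IR >2. Two independent experiments in triplicate.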

For assay [2] the target is unchanged. Kind of assay: Induction of quinone reductase-1 activity in mouse Hepa-1c1c7 cells assessed as concentration required to double induction activity by MTT assay. In kind it is cell-based. In outline:
as §1

Consider `O=c1cc(-c2ccc(Br)cc2)oc2ccccc12`, for which, in assay [1], the Ratio is 4.2. In addition, the CD in assay [2] was found to be 20 nM.
